Article PMC8129907, “Vancomycin bone and tissue concentrations following tibial intraosseous administration – evaluated in a porcine model” (Journal of Bone and Joint Infection, 2021)

Conditions: tibial cancellous bone adjacent to cannula, pig, 500 mg intraosseous, no tourniquet, microdialysis, 12 h, mean (SD), n = 8

CN[C@H](CC(C)C)C(=O)N[C@H]1C(=O)N[C@@H](CC(N)=O)C(=O)N[C@H]2C(=O)N[C@H]3C(=O)N[C@H](C(=O)N[C@H](C(=O)O)c4cc(O)cc(O)c4-c4cc3ccc4O)[C@H](O)c3ccc(c(Cl)c3)Oc3cc2cc(c3O[C@@H]2O[C@H](CO)[C@@H](O)[C@H](O)[C@H]2O[C@H]2C[C@](C)(N)[C@H](O)[C@H](C)O2)Oc2ccc(cc2Cl)[C@H]1O [vancomycin]
Cmax (peak drug concentration): 1236 (1883) µg/mL
